In US8252821B2, “Bioavailable capsule compositions of amorphous alpha-(N-sulfonamido)acetamide compound” (Bristol-Myers Squibb Company, priority 2009, dated 2012):

Assay: Solubility of solubilized capsule formulations in FeSSIF at 37° C.
Format: physicochemical
Conditions: FeSSIF pH 5.0, 37° C., 24 Hr.

ACTIVE COMPOUND Concentration: 22.4 µg/mL
SMILES: NC(=O)[C@@H](CCC(F)(F)F)N(Cc1ccc(-c2ncon2)cc1F)S(=O)(=O)c1ccc(Cl)cc1 [Active Compound, (2R)-2-[[(4-chlorophenyl)sulfonyl][[2-fluoro-4-(1,2,4-oxadiazol-3-yl)phenyl]methyl]amino]-5,5,5-trifluoropentanamide]
